For eight compounds, EC50 results are on record in patent publication US20140100156A1 (SANOFI, priority 2012, published 2014).

Protein sequences, listed by entry. Tags and fused reporters are not part of them. Residues count along the entry.
UniProt P43220, 24-463: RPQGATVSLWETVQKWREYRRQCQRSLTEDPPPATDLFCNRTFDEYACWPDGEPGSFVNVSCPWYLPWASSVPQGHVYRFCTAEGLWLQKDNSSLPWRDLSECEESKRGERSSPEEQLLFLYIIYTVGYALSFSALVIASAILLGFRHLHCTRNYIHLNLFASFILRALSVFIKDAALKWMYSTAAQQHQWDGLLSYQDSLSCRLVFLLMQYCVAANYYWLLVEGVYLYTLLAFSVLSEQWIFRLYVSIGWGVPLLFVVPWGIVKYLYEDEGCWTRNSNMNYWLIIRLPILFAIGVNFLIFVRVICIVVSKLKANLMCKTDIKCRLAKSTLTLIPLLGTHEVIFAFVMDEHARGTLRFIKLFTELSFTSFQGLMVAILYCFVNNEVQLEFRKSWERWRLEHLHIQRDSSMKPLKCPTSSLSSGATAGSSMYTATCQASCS
UniProt P47871, 26-477: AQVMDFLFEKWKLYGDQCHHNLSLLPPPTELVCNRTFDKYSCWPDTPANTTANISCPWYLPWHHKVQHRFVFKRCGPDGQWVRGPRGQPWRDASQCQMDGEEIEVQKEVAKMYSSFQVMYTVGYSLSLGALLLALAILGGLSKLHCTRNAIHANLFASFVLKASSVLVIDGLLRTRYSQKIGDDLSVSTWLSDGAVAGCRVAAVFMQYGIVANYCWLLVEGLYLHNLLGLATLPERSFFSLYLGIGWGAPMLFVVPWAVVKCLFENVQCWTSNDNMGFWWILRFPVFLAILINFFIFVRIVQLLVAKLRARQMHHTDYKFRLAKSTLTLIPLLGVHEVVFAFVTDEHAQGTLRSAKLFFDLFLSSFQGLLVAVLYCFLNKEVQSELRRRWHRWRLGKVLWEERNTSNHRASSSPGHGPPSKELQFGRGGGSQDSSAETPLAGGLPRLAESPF

One assay concerns the target T1, human GLP-1 receptor (Homo sapiens, UniProt P43220).
T1 construct: expressed in transfected cells; host or cells: HEK-293
Briefly: cAMP response (HTRF) of HEK-293 cells stably expressing human GLP-1 receptor. In kind it is cell-based. The conditions noted are these: Table 5; cAMP, HEK-293; read-out: EC50 hGLP-1R.

The target in another assay is T2, human glucagon receptor (Homo sapiens, UniProt P47871).
T2 construct: expressed in transfected cells; host or cells: HEK-293
Briefly: cAMP response (HTRF) of HEK-293 cells stably expressing human glucagon receptor. In kind it is cell-based. The following applies: Table 5; cAMP, HEK-293; read-out: EC50 hGlucagon-R.

As for `CCCCCCCCCCCCCCCCCC(=O)N[C@@H](CCC(=O)NCCCC[C@H](NC(=O)[C@H](CCC(N)=O)NC(=O)[C@H](CCCCN)NC(=O)[C@H](CO)NC(=O)[C@H](CC(C)C)NC(=O)[C@H](CC(=O)O)NC(=O)[C@H](CO)NC(=O)[C@@H](NC(=O)[C@H](Cc1ccccc1)NC(=O)[C@@H](NC(=O)CNC(=O)[C@H](CCC(N)=O)NC(=O)C(C)(C)NC(=O)[C@@H](N)Cc1c[nH]cn1)[C@@H](C)O)[C@@H](C)O)C(=O)N[C@@H](CC(=O)O)C(=O)N[C@@H](CCC(=O)O)C(=O)N[C@@H](CCC(N)=O)C(=O)N[C@@H](CCCNC(=N)N)C(=O)N[C@@H](C)C(=O)N[C@@H](CCCCN)C(=O)N[C@@H](CC(=O)O)C(=O)N[C@@H](Cc1ccccc1)C(=O)N[C@H](C(=O)N[C@@H](CCC(=O)O)C(=O)N[C@@H](Cc1c[nH]c2ccccc12)C(=O)N[C@@H](CC(C)C)C(=O)N[C@@H](CCCCN)C(=O)N[C@@H](CO)C(=O)NCC(=O)NCC(=O)N1CCC[C@H]1C(=O)N[C@@H](CO)C(=O)N[C@@H](CO)C(=O)NCC(=O)N[C@@H](C)C(=O)N1CCC[C@H]1C(=O)N1CCC[C@H]1C(=O)N1CCC[C@H]1C(=O)N[C@@H](CO)C(N)=O)[C@@H](C)CC)C(=O)O` [compound 175], the concentration for a half-maximal effect (EC50) came to 2.5 pM at human GLP-1 receptor and 3.1 pM on human glucagon receptor.
Take `CCCCCCCCCCCCCCCC(=O)N[C@@H](CCC(=O)NCCCC[C@H](NC(=O)[C@H](CCC(N)=O)NC(=O)[C@H](CCCCN)NC(=O)[C@H](CO)NC(=O)[C@H](CC(C)C)NC(=O)[C@H](CC(=O)O)NC(=O)[C@H](CO)NC(=O)[C@@H](NC(=O)[C@H](Cc1ccccc1)NC(=O)[C@@H](NC(=O)CNC(=O)[C@H](CCC(N)=O)NC(=O)[C@@H](CO)NC(=O)[C@@H](N)Cc1c[nH]cn1)[C@@H](C)O)[C@@H](C)O)C(=O)N[C@@H](CCC(=O)O)C(=O)N[C@@H](CO)C(=O)N[C@@H](CCCNC(=N)N)C(=O)N[C@@H](C)C(=O)N[C@@H](C)C(=O)NC(C)(C)C(=O)N[C@@H](CC(C)C)C(=O)N[C@@H](Cc1ccccc1)C(=O)N[C@H](C(=O)N[C@@H](CCC(=O)O)C(=O)N[C@@H](Cc1c[nH]c2ccccc12)C(=O)N[C@@H](CC(C)C)C(=O)N[C@@H](CCCCN)C(=O)N[C@@H](C)C(=O)NCC(=O)NCC(=O)N1CCC[C@H]1C(=O)N[C@@H](CO)C(=O)N[C@@H](CO)C(=O)NCC(=O)N[C@@H](C)C(=O)N1CCC[C@H]1C(=O)N1CCC[C@H]1C(=O)N1CCC[C@H]1C(=O)N[C@@H](CO)C(N)=O)[C@@H](C)CC)C(=O)O` [compound 46]: the EC50 at human GLP-1 receptor was found to be 3.2 pM; on human glucagon receptor it was 25.1 pM.
`CCCCCCCCCCCCCCCCCC(=O)N[C@@H](CCC(=O)NCCCC[C@H](NC(=O)[C@H](CCC(N)=O)NC(=O)[C@H](CCCCN)NC(=O)[C@H](CO)NC(=O)[C@H](CC(C)C)NC(=O)[C@H](CC(=O)O)NC(=O)[C@H](CO)NC(=O)[C@@H](NC(=O)[C@H](Cc1ccccc1)NC(=O)[C@@H](NC(=O)CNC(=O)[C@H](CCC(N)=O)NC(=O)C(C)(C)NC(=O)[C@@H](N)Cc1c[nH]cn1)[C@@H](C)O)[C@@H](C)O)C(=O)N[C@@H](CC(=O)O)C(=O)N[C@@H](CCCCN)C(=O)N[C@@H](CCCNC(=N)N)C(=O)N[C@@H](C)C(=O)N[C@@H](C)C(=O)N[C@@H](CCC(N)=O)C(=O)N[C@@H](CC(C)C)C(=O)N[C@@H](Cc1ccccc1)C(=O)N[C@H](C(=O)N[C@@H](CCC(=O)O)C(=O)N[C@@H](Cc1c[nH]c2ccccc12)C(=O)N[C@@H](CC(C)C)C(=O)N[C@@H](CCCCN)C(=O)N[C@@H](C)C(=O)N[C@H](C)C(=O)NCC(=O)N1CCC[C@H]1C(=O)N[C@@H](CO)C(=O)N[C@@H](CO)C(=O)NCC(=O)N[C@@H](C)C(=O)N1CCC[C@H]1C(=O)N1CCC[C@H]1C(=O)N1CCC[C@H]1C(=O)N[C@@H](CO)C(N)=O)[C@@H](C)CC)C(=O)O` [compound 211]: the EC50 came to 15.5 pM at human GLP-1 receptor and 26.4 pM at human glucagon receptor.
For the compound `CCCCCCCCCCCCCCCCCCCCCC(=O)N[C@@H](CCC(=O)NCCCC[C@H](NC(=O)[C@H](CCC(N)=O)NC(=O)[C@H](CCCCN)NC(=O)[C@H](CO)NC(=O)[C@H](CC(C)C)NC(=O)[C@H](CC(=O)O)NC(=O)[C@H](CO)NC(=O)[C@@H](NC(=O)[C@H](Cc1ccccc1)NC(=O)[C@@H](NC(=O)CNC(=O)[C@H](CCC(N)=O)NC(=O)[C@@H](CO)NC(=O)[C@@H](N)Cc1c[nH]cn1)[C@@H](C)O)[C@@H](C)O)C(=O)N[C@@H](CCC(=O)O)C(=O)N[C@@H](CO)C(=O)N[C@@H](CCCNC(=N)N)C(=O)N[C@@H](C)C(=O)N[C@@H](C)C(=O)N[C@@H](CCC(N)=O)C(=O)N[C@@H](CC(=O)O)C(=O)N[C@@H](Cc1ccccc1)C(=O)N[C@H](C(=O)N[C@@H](CCC(=O)O)C(=O)N[C@@H](Cc1c[nH]c2ccccc12)C(=O)N[C@@H](CC(C)C)C(=O)N[C@@H](CCCCN)C(=O)N[C@@H](C)C(=O)NCC(=O)NCC(=O)N1CCC[C@H]1C(=O)N[C@@H](CO)C(=O)N[C@@H](CO)C(=O)NCC(=O)N[C@@H](C)C(=O)N1CCC[C@H]1C(=O)N1CCC[C@H]1C(=O)N1CCC[C@H]1C(=O)N[C@@H](CO)C(N)=O)[C@@H](C)CC)C(=O)O` [compound 60], the EC50 was determined as 38.4 pM on human GLP-1 receptor and 19.3 pM on human glucagon receptor.
`CCCCCCCCCCCCCCCC(=O)N[C@@H](CCC(=O)NCCCC[C@H](NC(=O)[C@H](CCC(N)=O)NC(=O)[C@H](CCCCN)NC(=O)[C@H](CO)NC(=O)[C@H](CC(C)C)NC(=O)[C@H](CC(=O)O)NC(=O)[C@H](CO)NC(=O)[C@@H](NC(=O)[C@H](Cc1ccccc1)NC(=O)[C@@H](NC(=O)CNC(=O)[C@H](CCC(N)=O)NC(=O)C(C)(C)NC(=O)[C@@H](N)Cc1c[nH]cn1)[C@@H](C)O)[C@@H](C)O)C(=O)N[C@@H](CCC(=O)O)C(=O)N[C@@H](CO)C(=O)NC(C)(C)C(=O)N[C@@H](C)C(=O)N[C@@H](C)C(=O)N[C@@H](CCC(N)=O)C(=O)N[C@@H](CC(=O)O)C(=O)N[C@@H](Cc1ccccc1)C(=O)N[C@H](C(=O)N[C@@H](CCC(=O)O)C(=O)N[C@@H](Cc1c[nH]c2ccccc12)C(=O)N[C@@H](CC(C)C)C(=O)N[C@@H](CCCCN)C(=O)N[C@@H](C)C(=O)NCC(=O)NCC(=O)N1CCC[C@H]1C(=O)N[C@@H](CO)C(=O)N[C@@H](CO)C(=O)NCC(=O)N[C@@H](C)C(=O)N1CCC[C@H]1C(=O)N1CCC[C@H]1C(=O)N1CCC[C@H]1C(=O)N[C@@H](CO)C(N)=O)[C@@H](C)CC)C(=O)O` [compound 13]: the EC50 at human GLP-1 receptor was determined as 3.1 pM; at human glucagon receptor, 281 pM.
The corresponding values for `CCCCCCCCCCCCCC(=O)N[C@@H](CCC(=O)NCCCC[C@H](NC(=O)[C@H](CCC(N)=O)NC(=O)[C@H](CCCCN)NC(=O)[C@H](CO)NC(=O)[C@H](CC(C)C)NC(=O)[C@H](CC(=O)O)NC(=O)[C@H](CO)NC(=O)[C@@H](NC(=O)[C@H](Cc1ccccc1)NC(=O)[C@@H](NC(=O)CNC(=O)[C@H](CCC(N)=O)NC(=O)[C@@H](CO)NC(=O)[C@@H](N)Cc1c[nH]cn1)[C@@H](C)O)[C@@H](C)O)C(=O)N[C@@H](CC(=O)O)C(=O)N[C@@H](CO)C(=O)N[C@@H](CCCNC(=N)N)C(=O)N[C@@H](CCCNC(=N)N)C(=O)N[C@@H](C)C(=O)N[C@@H](CCC(N)=O)C(=O)N[C@@H](CC(=O)O)C(=O)N[C@@H](Cc1ccccc1)C(=O)N[C@H](C(=O)N[C@@H](CCC(=O)O)C(=O)N[C@@H](Cc1c[nH]c2ccccc12)C(=O)N[C@@H](CC(C)C)C(=O)N[C@@H](CCCCN)C(=O)N[C@@H](CC(N)=O)C(=O)NCC(=O)NCC(=O)N1CCC[C@H]1C(=O)N[C@@H](CO)C(=O)N[C@@H](CO)C(=O)NCC(=O)N[C@@H](C)C(=O)N1CCC[C@H]1C(=O)N1CCC[C@H]1C(=O)N1CCC[C@H]1C(=O)N[C@@H](CO)C(N)=O)[C@@H](C)CC)C(=O)O` [compound 90] are 8.8 pM and 3.7 pM.
For `CCCCCCCCCCCCCCCC(=O)N[C@@H](CCC(=O)NCCCC[C@H](NC(=O)[C@H](CCC(N)=O)NC(=O)[C@H](CCCCN)NC(=O)[C@H](CO)NC(=O)[C@H](CC(C)C)NC(=O)[C@H](CC(=O)O)NC(=O)[C@H](CO)NC(=O)[C@@H](NC(=O)[C@H](Cc1ccccc1)NC(=O)[C@@H](NC(=O)CNC(=O)[C@H](CCC(N)=O)NC(=O)[C@@H](CO)NC(=O)[C@@H](N)Cc1c[nH]cn1)[C@@H](C)O)[C@@H](C)O)C(=O)N[C@@H](CCC(=O)O)C(=O)N[C@@H](CO)C(=O)N[C@@H](CCCNC(=N)N)C(=O)N[C@@H](CCCNC(=N)N)C(=O)N[C@@H](C)C(=O)NC(C)(C)C(=O)N[C@@H](CC(=O)O)C(=O)N[C@@H](Cc1ccccc1)C(=O)N[C@H](C(=O)N[C@@H](CCC(=O)O)C(=O)N[C@@H](Cc1c[nH]c2ccccc12)C(=O)N[C@@H](CC(C)C)C(=O)N[C@@H](CCCCN)C(=O)N[C@@H](C)C(=O)NCC(=O)NCC(=O)N1CCC[C@H]1C(=O)N[C@@H](CO)C(=O)N[C@@H](CO)C(=O)NCC(=O)N[C@@H](C)C(=O)N1CCC[C@H]1C(=O)N1CCC[C@H]1C(=O)N1CCC[C@H]1C(=O)N[C@@H](CO)C(N)=O)[C@@H](C)CC)C(=O)O` [compound 75] the same measures were 11.1 pM and 12.5 pM.
The corresponding values for `CCCCCCCCCCCCCCCC(=O)N[C@@H](CCC(=O)NCCCC[C@H](NC(=O)[C@H](CCC(N)=O)NC(=O)[C@H](CCCCN)NC(=O)[C@H](CO)NC(=O)[C@H](CC(C)C)NC(=O)[C@H](CC(=O)O)NC(=O)[C@H](CO)NC(=O)[C@@H](NC(=O)[C@H](Cc1ccccc1)NC(=O)[C@@H](NC(=O)CNC(=O)[C@H](CCC(N)=O)NC(=O)[C@@H](CO)NC(=O)[C@@H](N)Cc1c[nH]cn1)[C@@H](C)O)[C@@H](C)O)C(=O)N[C@@H](CC(=O)O)C(=O)N[C@@H](CCC(=O)O)C(=O)N[C@@H](CCC(=O)O)C(=O)N[C@@H](C)C(=O)N[C@@H](C)C(=O)N[C@@H](CCCNC(=N)N)C(=O)N[C@@H](CC(C)C)C(=O)N[C@@H](Cc1ccccc1)C(=O)N[C@H](C(=O)N[C@@H](CCC(=O)O)C(=O)N[C@@H](Cc1c[nH]c2ccccc12)C(=O)N[C@@H](CC(C)C)C(=O)N[C@@H](CCCCN)C(=O)N[C@@H](C)C(=O)NCC(=O)NCC(=O)N1CCC[C@H]1C(=O)N[C@@H](CO)C(=O)N[C@@H](CO)C(=O)NCC(=O)N[C@@H](C)C(=O)N1CCC[C@H]1C(=O)N1CCC[C@H]1C(=O)N1CCC[C@H]1C(=O)N[C@@H](CO)C(N)=O)[C@@H](C)CC)C(=O)O` [compound 221] are 1.5 pM and 9.2 pM.
